Measured values reported in ChEMBL document CHEMBL3352634 (Bioorg Med Chem Lett, 2014).

How the values were obtained:
[1] = system: T1, Peroxisome proliferator-activated receptor alpha (Homo sapiens), Q07869 [T279A]; assay: Agonist activity at wild-type human PPARalpha Thr279Ala mutant expressed in COS7 cells after 12 hrs by Dual-Glo luciferase assay relative to control; assay type: cell-based; settings: COS-7
T1 sequence (whole entry): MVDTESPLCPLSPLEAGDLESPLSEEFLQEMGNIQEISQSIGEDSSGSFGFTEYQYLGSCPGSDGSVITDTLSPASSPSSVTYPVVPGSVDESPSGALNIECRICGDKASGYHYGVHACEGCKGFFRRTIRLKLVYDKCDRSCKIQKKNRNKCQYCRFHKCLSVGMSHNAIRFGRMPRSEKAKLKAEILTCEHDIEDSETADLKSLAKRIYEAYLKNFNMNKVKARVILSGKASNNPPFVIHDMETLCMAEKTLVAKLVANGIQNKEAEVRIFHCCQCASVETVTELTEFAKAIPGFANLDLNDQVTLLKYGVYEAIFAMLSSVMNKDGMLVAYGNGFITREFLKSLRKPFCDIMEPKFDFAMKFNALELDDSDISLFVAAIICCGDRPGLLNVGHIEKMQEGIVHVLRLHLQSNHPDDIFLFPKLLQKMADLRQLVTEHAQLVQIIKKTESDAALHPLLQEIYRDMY

[2] = biological target: T2, Peroxisome proliferator-activated receptor alpha (Homo sapiens) (UniProt Q07869); assay: Agonist activity at wild-type human PPARalpha LBD expressed in COS7 cells after 12 hrs by Dual-Glo luciferase assay relative to control; assay type: cell-based; settings: COS-7
T2 sequence (whole entry): T1 sequence (whole entry) with A279T

For `CC(C)(Sc1ccc(CCN(CCCCC2CCCCC2)C(=O)NC2CCCCC2)cc1)C(=O)O`, the %max [1] was 90% and the %max [2] was 122%.

Changes are numbered by the printed parent chain.
